{"source": "paper PMC8924211", "about": "(Nature Communications, 2022)", "test_in_all_cases": "Calcium assay, HEK293/Gα16 cells, GAL2R mutants", "assay_type_in_all_cases": "cell-based", "key": {"GAL2R mutants [1]": {"target": "T1, GAL2R mutants (Homo sapiens, UniProt O43603, I256A)", "T1 construct": "expressed in transfected cells; host or cells: HEK293", "T1 sequence (O43603 1-387 I256A)": "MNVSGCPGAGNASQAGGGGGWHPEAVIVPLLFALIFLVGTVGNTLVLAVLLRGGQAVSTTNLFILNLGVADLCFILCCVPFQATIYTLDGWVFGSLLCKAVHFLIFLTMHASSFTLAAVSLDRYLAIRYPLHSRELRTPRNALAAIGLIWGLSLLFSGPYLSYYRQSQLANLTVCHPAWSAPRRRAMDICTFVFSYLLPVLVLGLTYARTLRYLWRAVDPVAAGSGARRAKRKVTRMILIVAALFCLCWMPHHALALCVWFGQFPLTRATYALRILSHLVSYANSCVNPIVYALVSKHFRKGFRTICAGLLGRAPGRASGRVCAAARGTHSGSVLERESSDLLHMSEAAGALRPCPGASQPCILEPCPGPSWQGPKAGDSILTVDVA", "conditions": "GAL2R I2566.55A, spexin"}, "GAL2R mutants [2]": {"target": "T2, GAL2R mutants (Homo sapiens, UniProt O43603, L266A)", "T2 construct": "expressed in transfected cells; host or cells: HEK293", "T2 sequence (O43603 1-387 L266A)": "T1 sequence (O43603 1-387 I256A) with A256I, L266A", "conditions": "GAL2R L266ECL3A; spexin, HEK293/Gα16; mean ± S.E.M."}, "GAL2R mutants [3]": {"target": "T3, GAL2R mutants (Homo sapiens, UniProt O43603, A170S)", "T3 construct": "expressed in transfected cells; host or cells: HEK293", "T3 sequence (O43603 1-387 A170S)": "T1 sequence (O43603 1-387 I256A) with A170S, A256I", "conditions": "GAL2R A170ECL2S; spexin, HEK293/Gα16; mean ± S.E.M."}, "GAL2R mutants [4]": {"target": "T4, GAL2R mutants (Homo sapiens, UniProt O43603, H102A)", "T4 construct": "expressed in transfected cells; host or cells: HEK293", "T4 sequence (O43603 1-387 H102A)": "T1 sequence (O43603 1-387 I256A) with H102A, A256I", "conditions": "GAL2R H1023.29A, spexin"}, "GAL2R mutants [5]": {"target": "T5, GAL2R mutants (Homo sapiens, UniProt O43603, F264A)", "T5 construct": "expressed in transfected cells; host or cells: HEK293", "T5 sequence (O43603 1-387 F264A)": "T1 sequence (O43603 1-387 I256A) with A256I, F264A", "conditions": "GAL2R F264ECL3A, spexin"}}, "note": "Residue numbers refer to the chain shown, from its start."}
{"substance": "spexin", "values": [{"measurement": "EC50", "setting": "GAL2R mutants [1]; HEK293/Gα16, mean ± S.E.M.", "result": "0.679 ± 0.14", "unit": "µM"}, {"measurement": "EC50", "setting": "GAL2R mutants [1]; replicate 1", "result": 0.6743, "unit": "µM"}, {"measurement": "EC50", "setting": "GAL2R mutants [2]", "result": "17.5 ± 3.95", "unit": "µM"}, {"measurement": "EC50", "setting": "GAL2R mutants [3]", "result": "0.132 ± 0.019", "unit": "µM"}, {"measurement": "EC50", "setting": "GAL2R mutants [4]; replicate 1", "result": "no response"}, {"measurement": "EC50", "setting": "GAL2R mutants [4]; replicate 2", "result": "no response"}, {"measurement": "EC50", "setting": "GAL2R mutants [4]; replicate 3", "result": "no response"}, {"measurement": "EC50", "setting": "GAL2R mutants [5]; HEK293/Gα16", "result": "> 100", "unit": "µM"}, {"measurement": "EC50", "setting": "GAL2R mutants [5]; replicate 1", "result": "> 100", "unit": "µM"}, {"measurement": "EC50", "setting": "GAL2R mutants [5]; replicate 2", "result": "> 100", "unit": "µM"}, {"measurement": "EC50", "setting": "GAL2R mutants [5]; replicate 3", "result": "> 100", "unit": "µM"}]}
